Assay results: patent publication US20260137794A1, “LIGAND-DRUG CONJUGATE AND USE THEREOF” (SYSTIMMUNE, INC., priority 2022, published 2026)

Experiments:
Type in all cases: cell-based, Human
[1] = test system: MDA-MB-468; test: HER2 cell killing experiment by MTS method, MDA-MB-468; conditions: MDA-MB-468, HER2 negative, 5 days
Protocol: (§1) Pharmacodynamic test at cellular level: cell plating was performed on a 96-well plate in a certain density. After the cells adhered to the wall (usually taking at least 4 h), a series of drugs in several folds of dilution were added to each well plate to act for a certain period of time, for killing the cells. At the end of action of the drugs, a certain amount of MTS was added to react at 37° C. under 5% CO2 for 1-4 h. After color development using the MTS reagent, the OD 490 nm absorbance value was detected using a microplate reader, and then the IC50 for cell killing was analyzed and calculated.
(§2) Before addition, according to the concentration of each test sample, a drug (5×mother liquor concentration) was prepared using a preheated 1% FBS culture medium according to the initial concentration of 5.0 μM, and then diluted according to 10 folds of gradient concentration, totaling 8 detection points, followed by standing for later use. During the preparation, each concentration was uniformly mixed using an oscillator, specifically, oscillating for 2-3 sec at a time, with an interval of 1 sec, and then oscillating again, repeating 2-3 times.
(§3) The final concentration of the antibody and the antibody conjugated drug was 0 (Vehicle), 0.6 pM, 4.25 pM, 29.75 pM, 0.21 nM, 1.46 nM, 10.20 nM, 71.43 nM, 500 nM. […]

[2] = test system: MDA-MB-453; test: HER2 cell killing experiment by MTS method, MDA-MB-453; conditions: MDA-MB-453, HER2 moderate expression, 5 days
Protocol: as §1, §2, §3

[3] = test system: SK-BR-3; test: HER2 cell killing experiment by MTS method, SK-BR-3; conditions: SK-BR-3, HER2 high expression, 5 days
Protocol: as §1, §2, §3

[4] = test system: H1975; test: HER2 cell killing experiment by MTS method, H1975; conditions: H1975, HER2 low expression, 5 days
Protocol: as §1, §2, §3

Tras-Ex01 (DAR8) gave a pIC50 [1] of 7.00, a pIC50 [2] of less than 6.30 and a pIC50 [3] of less than 6.30. For the same substance, the pIC50 [4] was 6.44.

pIC50: −log10 of the molar value.
